Results taken from US6337064B1, “Manganese chelates with high relaxivity in serum” (Dibra S.p.A., priority 1998, dated 2002).

Key:
[1] = Relaxivity in aqueous solution; format: physicochemical
Protocol: (§1) The relaxivity of the compounds of the invention was measured both in saline solution and in human serum, reconstituted from Seronorm^(R) Human (Nycomed Pharma), lyophilized human serum, and the resulting data are summarized in TABLES 1 and 2.
(§2) TABLE 1 reports the relativity values measured for some compounds of the invention at 20 MHz; the other experimental conditions used are detailed following the table itself.
(§3) TABLE 2 comprises the results obtained from tests carried out under the same experimental conditions as above and in which r1 and r2 relaxivities were measured in serum and in aqueous solution at lower fields, precisely at 5 and 10 MHz. Said data evidence the significant increase in relaxivity obtained in serum already at 5 MHz and are indicative of the potential advantageous use of the compounds of the invention in M.R.I. diagnostic imaging at low fields.

[2] = Relaxivity in human serum reconstituted from Seronorm Human; format: physicochemical
Protocol: as §1, §2, §3

[3] = 5 MHz, same experimental conditions as Table 1
[4] = 10 MHz, same experimental conditions as Table 1

Manganese complex of [[S—(R*,R*)]-α,α′-[1,2-ethane-diyl-bis[(carboxymethyl)imino]]bis(cyclohexanepropanoic)acid salified with 1-deoxy-1-(methylamino)-D-glucitol (1:2) [Example 3]
Relaxivity r1, aqueous solution ([1]; 0.15 M NaCl aqueous solution, 20 MHz, 39° C., pH 7.3): 3.52^(6) mM^−1 s^−1 | Relaxivity r1 5 MHz, aqueous solution [1, 3]: 4.7 mM⁻¹ s⁻¹ | Relaxivity r1 10 MHz, aqueous solution [1, 4]: 4.3 mM⁻¹ s⁻¹ | Relaxivity r1 5 MHz, Seronorm [2, 3]: 26.2 mM⁻¹ s⁻¹ | Relaxivity r1 10 MHz, Seronorm [2, 4]: 35.1 mM⁻¹ s⁻¹ | Relaxivity r1, Seronorm Human ([2]; calculated between 0 and 1 mM, 20 MHz, 39° C.): 43^(7) mM^−1 s^−1
